# The other results are listed elsewhere or left out. Results with a measured potency or affinity are listed apart. The source made the active and inactive calls. Cut-off read from the data, not from the text of the source: active = inhibition above about 50%; inactive = the rest.
# By UniProt entry, the sequences of proteins in these tests, tags left out. Where a name states a change or a piece, a line headed by the entry shows the natural chain unless it says otherwise.
# UniProt P41145: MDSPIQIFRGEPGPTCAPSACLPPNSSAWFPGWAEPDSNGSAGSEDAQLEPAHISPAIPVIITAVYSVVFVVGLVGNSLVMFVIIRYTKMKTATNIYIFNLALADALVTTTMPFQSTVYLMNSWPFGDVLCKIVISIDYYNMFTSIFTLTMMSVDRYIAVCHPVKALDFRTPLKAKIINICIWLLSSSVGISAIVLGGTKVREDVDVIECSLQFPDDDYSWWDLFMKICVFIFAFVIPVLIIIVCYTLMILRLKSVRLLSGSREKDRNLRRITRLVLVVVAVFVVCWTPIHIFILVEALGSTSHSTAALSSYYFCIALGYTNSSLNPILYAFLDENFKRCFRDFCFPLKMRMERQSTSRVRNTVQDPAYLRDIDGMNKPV
# Target: Kappa-type opioid receptor (Homo sapiens) (UniProt P41145)
# Experiment: KOR antagonists, beta-arrestin recruitment, cell-based, luminescence, uHTS (AID 1778)
# Settings: antagonist mode, at 10 µM, stronger effect = higher value
row,SMILES,inhibition
1,COc1ccc(CCNC(=O)[C@@H](NC(=O)N2CCn3c2nc2ccccc23)C(C)C)cc1OC,inactive: -29.5%
2,O=C(Cn1c(-c2ccccn2)nc2ccccc21)NCCN1CCOCC1,inactive: -5.4%
3,O=[N+]([O-])c1cc([N+](=O)[O-])c(-c2ccn[nH]2)s1,inactive: 19.8%
4,Cn1c(=O)c2c(ncn2CC(=O)Nc2nc(-c3ccccc3Cl)cs2)n(C)c1=O,inactive: -11.2%
5,CCC(=O)Nc1cccc(C(=O)/C=C/c2ccc(F)cc2)c1,inactive: -21.6%
6,Cc1ccc(NC(=O)Cn2cnc3c(=O)n(C)c(=O)n(C)c32)c(C)c1,inactive: 26.8%
7,O=C(Cn1c(C(F)(F)F)nc2ccccc21)N1CCCC1,inactive: 11.8%
8,Cc1ccc(Cn2nnnc2CN2CCC(n3nnc4cc(C)ccc43)CC2)cc1,inactive: 16%
9,Cc1cccc(CSc2nc3ccncc3n2CC(=O)Nc2cc(C)cc(C)c2)c1,inactive: -7.4%
10,Cn1c(=O)c2c(nc(CN3CCC(Cc4ccccc4)CC3)n2CCN2CCOCC2)n(C)c1=O,inactive: -19.7%
11,CC1CCN(C(=O)Cn2cnc3c2c(=O)n(C)c(=O)n3C)c2ccccc2S1 (configuration not stated),inactive: -41.4%
12,C[C@H](NC(=O)N1CCn2c1nc1ccccc12)C(=O)NC1CC1,inactive: -8.8%
13,O=C(Nc1nc2ccccc2n1CCN1CCOCC1)c1ccc(Cn2cc([N+](=O)[O-])cn2)o1,inactive: -18.7%
14,N#Cc1ccc(NC(=O)Cn2c3[n+](c4ccc(C(F)(F)F)cc42)CCCCC3)cc1,inactive: 8.9%
15,CCC(C)[C@H](NC(=O)N1CCn2c1nc1ccccc12)C(=O)NCCc1ccc(OC)c(OC)c1 (some centres not stated),inactive: -23.9%
16,Cn1c(=O)n(CC(=O)Nc2ccc(F)cc2)c2ccccc21,inactive: 28.9%
17,CCOC(=O)c1cccc(NC(=O)Cn2c(CC(=O)N3CCCC3)nc3ccccc32)c1,inactive: -19.9%
18,CC(C)N(C(=O)Cn1c(SCC(=O)N2CCN(c3ccccc3)CC2)nc2ccccc21)C(C)C,inactive: -18.7%
19,C/C(=N\NC(=O)Cn1c(-c2ccccn2)nc2ccccc21)c1cccc(O)c1,inactive: -10.5%

row,SMILES,inhibition
1,CCN1CCC(Nc2ccnc3cc(Cl)ccc23)CC1,inactive: 13.4%
2,CCOP1(=S)c2c(C)nn(CCC#N)c2N=C(c2ccccc2F)N1C (configuration not stated),inactive: -18.3%
3,O=P(Nc1nccs1)(c1ccccc1)c1nc2ccccc2s1 (configuration not stated),inactive: 7%
4,CCN(CC)CCn1c(C)nc2ccccc21,inactive: 7.9%
5,Cn1c(=O)c2c(ncn2CC(=O)N2CCN(S(=O)(=O)c3ccc(Cl)cc3)CC2)n(C)c1=O,inactive: -13.1%
6,O=P(Nc1nccs1)(Oc1ccccc1)Oc1ccccc1,inactive: 18.7%
7,Cc1ccccc1NC(=O)Cn1c(NCC(C)O)nc2ccccc21 (configuration not stated),inactive: 15.6%
8,CCc1nc2ccccc2n1CC(=O)Nc1cc(C)on1,inactive: -13%
9,CC(C)c1ccc(NC(=O)C2CC(=O)Nc3nc4ccccc4n32)cc1 (configuration not stated),inactive: -6.6%
10,CCN(Cc1ccccc1)C(=O)Cn1cnc2c1c(=O)n(C)c(=O)n2C,inactive: -22.9%
11,CCN(CC)CCn1c(=N)n(CC(O)COc2ccccc2)c2ccccc21 (configuration not stated),inactive: -0.2%
12,C[C@H](NC(=O)N1CCn2c1nc1ccccc12)C(=O)NCc1ccc2c(c1)OCO2,inactive: -11%
13,CS(=O)(=O)c1cc([N+](=O)[O-])c2no[n+]([O-])c2c1,inactive: 5%
14,Cc1ccc(/C=N\NC(=O)Cn2c(C)nc3ccccc32)o1,inactive: -5.3%
15,CCC(=O)NC(/C=C/c1ccccc1)c1cc([N+](=O)[O-])c2cccnc2c1O (configuration not stated),inactive: 26.9%
16,Cn1c(=O)c2c(ncn2CC(=O)Nc2ccc3c(c2)OCO3)n(C)c1=O,inactive: -14.2%
17,O=C1NCN(c2ccccc2)C12CCN(c1nnnn1-c1ccccc1)CC2,inactive: -3.8%
18,CN(C)C(=O)Cn1c(SCC(=O)N2CCCc3ccccc32)nc2ccccc21,inactive: -9.3%
19,COc1cccc(C(=O)CSc2nc3ccccc3n2CC(=O)N(C(C)C)C(C)C)c1,inactive: 4.6%

row,SMILES,inhibition
1,CC(C)Sc1nc2ccccc2n1CC(=O)NCc1ccc2c(c1)OCO2,inactive: 25.1%
2,Cn1c(=O)n(Cc2ccc(F)cc2)c(=O)c2c1nc1n2CCN1Cc1ccco1,inactive: -15.2%
3,CCOC(=O)CNC(=S)N1CCn2c(nc3ccccc32)C1,inactive: 35.8%
4,O=C(Cn1c(-c2ccccn2)nc2ccccc21)N/N=C/c1cccnc1,inactive: 25.1%
5,Cc1nc2ccccc2n1CC(=O)NCc1ccccc1,inactive: -31.6%
6,CCOC(=O)C1CCN(C(=O)CC2C(=O)N(Cc3ccccc3)C(C)c3nc4ccccc4n32)CC1 (configuration not stated),active: 56%
7,O=C(C1CCN(S(=O)(=O)c2cnc[nH]2)CC1)N1CCn2c1nc1ccccc12,inactive: 9.8%
8,Cn1c(=O)c2c(ncn2CC(=O)N/N=C/C=C/c2ccco2)n(C)c1=O,inactive: 8.9%
9,Cn1c(=O)c2c(ncn2CC(=O)N/N=C/c2cn[nH]c2-c2ccc(F)cc2)n(C)c1=O,inactive: -18.1%
10,Fc1ccc2c(c1)nnn2C1CCN(Cc2nnnn2C2CCCCC2)CC1,inactive: -0.1%
11,COC(CNC(=O)CC1C(=O)N(Cc2ccccc2)C(C)c2nc3ccccc3n21)OC (configuration not stated),inactive: 1.5%
12,NNC(=O)Cn1c(COc2ccc(Cl)cc2)nc2ccccc21,inactive: -10.6%
13,N=c1n(CCN2CCOCC2)c2ccccc2n1CC(O)COc1ccccc1 (configuration not stated),inactive: -31.6%
14,Cc1ccc2c(c1)C1CN(C)CCC1N2C(=O)c1cn(-c2ccccc2)nc1-c1ccccc1 (configuration not stated),inactive: 4.6%
15,Nc1nonc1-c1nc2ccccc2n1CC(=O)N/N=C/c1ccc(-c2cccc(C(=O)O)c2)o1,inactive: -26.8%
16,CCOC(=O)c1ccccc1NC(=O)Cn1cnc2c1c(=O)n(C)c(=O)n2C,inactive: -2.4%
17,NC(=O)Cn1c(-c2nonc2N)nc2ccccc21,inactive: -14.4%
18,COCCN1CCn2c(nc3cc(NC(=O)NC4CCCCC4)ccc32)C1,inactive: 49.3%
19,O=C(Cn1cnc2ccccc21)N/N=C/c1ccc([N+](=O)[O-])cc1,inactive: 26.2%
